For the assay, the target named is Mu-type opioid receptor (Homo sapiens) (UniProt P35372). Description: OPRM1 activation in single-receptor cells, late-stage follow-up, counter-screen for OPRM1-OPRD1 heterodimer activator project, cell-based, luminescence, dose response (AID 651689). Conditions: OPRM1 cell line, luminescence activation counterscreen. Background: The purpose of a counterscreen is to sort out artefacts and off-target activity.

Sequences of proteins named here, by UniProt entry; tags and fusion partners are left off.
UniProt P35372, whole entry, looked up: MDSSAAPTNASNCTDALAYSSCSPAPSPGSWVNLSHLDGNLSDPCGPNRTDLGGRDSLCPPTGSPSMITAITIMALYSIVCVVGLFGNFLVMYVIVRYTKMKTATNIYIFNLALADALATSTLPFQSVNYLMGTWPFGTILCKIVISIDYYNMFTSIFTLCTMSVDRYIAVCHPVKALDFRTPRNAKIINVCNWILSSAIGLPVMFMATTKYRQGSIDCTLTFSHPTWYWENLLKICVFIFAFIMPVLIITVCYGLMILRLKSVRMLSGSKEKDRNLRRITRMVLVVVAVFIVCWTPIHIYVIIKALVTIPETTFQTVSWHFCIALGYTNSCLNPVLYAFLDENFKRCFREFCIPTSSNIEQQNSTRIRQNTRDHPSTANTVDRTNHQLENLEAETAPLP

The source made the active and inactive calls. No rule for the calls is given here.

One may read the EC50 as the concentration giving half of the maximal effect. `CCOc1ccc(CN2CCC(Nc3cccc4ccccc34)CC2)cc1C#N`: the EC50 was inactive: > 40 µM.

For the origin of these results see PubChem BioAssay AID651689 (The Scripps Research Institute Molecular Screening Center, 2012).
